The assay deals with ATP-binding cassette sub-family C member 4 (Homo sapiens, UniProt O15439). The assay is classed as functional, cell-based, HEK293.

By UniProt entry, the sequences of proteins in these tests, tags left out. Where a name states a change or a piece, a line headed by the entry shows the natural chain unless it says otherwise.
UniProt O15439: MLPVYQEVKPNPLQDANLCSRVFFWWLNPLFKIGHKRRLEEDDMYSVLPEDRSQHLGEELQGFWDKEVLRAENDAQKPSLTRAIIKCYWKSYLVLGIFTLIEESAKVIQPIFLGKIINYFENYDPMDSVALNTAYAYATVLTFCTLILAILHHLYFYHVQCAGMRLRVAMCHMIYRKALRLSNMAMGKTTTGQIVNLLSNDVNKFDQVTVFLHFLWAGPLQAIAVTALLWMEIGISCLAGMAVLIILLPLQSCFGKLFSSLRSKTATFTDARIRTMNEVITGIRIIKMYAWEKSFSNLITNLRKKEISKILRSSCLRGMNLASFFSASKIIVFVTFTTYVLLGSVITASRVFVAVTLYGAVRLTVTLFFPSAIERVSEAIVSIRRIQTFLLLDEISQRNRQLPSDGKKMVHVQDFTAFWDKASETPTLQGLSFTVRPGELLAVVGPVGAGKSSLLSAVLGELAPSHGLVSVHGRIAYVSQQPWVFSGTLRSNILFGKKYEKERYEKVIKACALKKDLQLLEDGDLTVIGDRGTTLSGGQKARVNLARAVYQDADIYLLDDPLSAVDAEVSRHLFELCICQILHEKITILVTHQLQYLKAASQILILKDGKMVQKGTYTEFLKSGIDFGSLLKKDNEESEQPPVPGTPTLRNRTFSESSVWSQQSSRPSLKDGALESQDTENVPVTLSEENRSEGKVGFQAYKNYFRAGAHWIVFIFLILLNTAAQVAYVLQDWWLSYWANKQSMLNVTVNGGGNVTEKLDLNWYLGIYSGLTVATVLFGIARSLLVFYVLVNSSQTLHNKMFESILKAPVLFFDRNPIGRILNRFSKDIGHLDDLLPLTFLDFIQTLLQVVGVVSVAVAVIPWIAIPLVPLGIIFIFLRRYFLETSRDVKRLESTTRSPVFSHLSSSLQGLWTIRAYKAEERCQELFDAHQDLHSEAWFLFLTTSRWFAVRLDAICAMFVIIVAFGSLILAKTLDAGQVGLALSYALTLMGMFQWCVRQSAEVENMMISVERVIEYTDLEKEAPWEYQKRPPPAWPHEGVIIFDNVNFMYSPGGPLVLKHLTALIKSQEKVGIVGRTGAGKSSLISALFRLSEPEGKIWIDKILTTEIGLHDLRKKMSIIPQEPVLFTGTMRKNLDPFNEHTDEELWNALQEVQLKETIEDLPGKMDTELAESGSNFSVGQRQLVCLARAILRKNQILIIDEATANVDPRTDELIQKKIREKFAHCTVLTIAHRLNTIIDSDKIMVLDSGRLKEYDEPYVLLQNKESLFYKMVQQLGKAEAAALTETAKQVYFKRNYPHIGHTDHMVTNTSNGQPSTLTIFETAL

pIC50: −log10 of the molar value.

The compound `CN(C)C(=O)CCSC(SCCC(=O)O)c1cccc(/C=C/c2ccc3ccc(Cl)cc3n2)c1` (stereo unspecified) [MK-571] showed a pIC50 of 5.00.

These data come from ChEMBL document CHEMBL2074007, “Characterization of the transport of nucleoside analog drugs by the human multidrug resistance proteins MRP4 and MRP5” (Mol Pharmacol, 2003).
